Activity calls are given as the source filed them. No cut-off for these calls is given here.

By UniProt entry, the sequences of proteins in these tests, tags left out.
UniProt O14744, whole entry: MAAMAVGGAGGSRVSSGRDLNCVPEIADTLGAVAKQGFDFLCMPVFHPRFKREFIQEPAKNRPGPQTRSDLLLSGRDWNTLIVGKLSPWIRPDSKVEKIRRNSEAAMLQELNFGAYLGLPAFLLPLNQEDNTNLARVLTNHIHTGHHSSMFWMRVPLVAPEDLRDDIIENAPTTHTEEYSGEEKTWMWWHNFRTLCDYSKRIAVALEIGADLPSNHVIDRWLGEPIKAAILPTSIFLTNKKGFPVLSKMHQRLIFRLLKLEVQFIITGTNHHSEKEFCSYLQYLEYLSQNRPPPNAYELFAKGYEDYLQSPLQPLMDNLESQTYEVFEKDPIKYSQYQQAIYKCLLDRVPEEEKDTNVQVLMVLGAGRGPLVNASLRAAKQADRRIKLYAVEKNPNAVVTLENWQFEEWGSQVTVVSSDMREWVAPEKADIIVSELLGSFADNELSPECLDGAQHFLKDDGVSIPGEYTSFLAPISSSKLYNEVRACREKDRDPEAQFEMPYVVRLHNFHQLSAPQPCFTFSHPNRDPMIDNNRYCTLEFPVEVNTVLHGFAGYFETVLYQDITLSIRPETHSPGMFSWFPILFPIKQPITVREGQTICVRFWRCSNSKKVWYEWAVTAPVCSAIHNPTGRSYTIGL

For assay [1], the target named is Protein arginine N-methyltransferase 5 (Homo sapiens, UniProt O14744). The assay can be described thus: Inhibition of PRMT5 (unknown origin) at 100 uM.
For assay [2], the target named is T1, Protein arginine N-methyltransferase 7 (Homo sapiens) (UniProt Q9NVM4).
T1 sequence (whole entry): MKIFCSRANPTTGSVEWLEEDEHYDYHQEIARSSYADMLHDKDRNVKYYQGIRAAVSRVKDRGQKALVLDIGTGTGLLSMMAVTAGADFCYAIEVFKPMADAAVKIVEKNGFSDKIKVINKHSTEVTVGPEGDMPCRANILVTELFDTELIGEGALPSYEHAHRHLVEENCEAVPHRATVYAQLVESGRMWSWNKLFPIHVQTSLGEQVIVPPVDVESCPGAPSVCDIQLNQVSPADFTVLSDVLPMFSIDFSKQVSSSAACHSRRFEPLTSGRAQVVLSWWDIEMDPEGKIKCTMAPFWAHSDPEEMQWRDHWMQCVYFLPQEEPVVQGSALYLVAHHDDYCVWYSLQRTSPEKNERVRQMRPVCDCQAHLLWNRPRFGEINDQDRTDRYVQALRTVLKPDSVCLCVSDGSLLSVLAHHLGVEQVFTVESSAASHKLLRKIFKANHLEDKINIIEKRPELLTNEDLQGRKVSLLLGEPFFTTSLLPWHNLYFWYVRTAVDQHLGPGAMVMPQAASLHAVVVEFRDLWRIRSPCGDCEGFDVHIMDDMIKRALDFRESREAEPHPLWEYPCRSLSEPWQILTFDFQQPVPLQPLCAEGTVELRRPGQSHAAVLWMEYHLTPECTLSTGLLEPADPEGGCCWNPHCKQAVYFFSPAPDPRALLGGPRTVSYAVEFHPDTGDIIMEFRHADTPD
The experiment in a line: Inhibition of PRMT7 (unknown origin) at 100 uM.

In the case of `CNC[C@H](O)CN(C)Cc1ccccc1OCc1ccc(-c2nccs2)c(Cl)c1`, the inhibition entry in assay [1] and in assay [2] was “inactive” in each case.
